Data on seven molecules can be found in patent US20160016998A1, “HIGH-AFFINITY MATRIPTASE INHIBITORS” (MERCK PATENT GMBH, priority 2013, published 2016).

This assay has as its target T1, matriptase (Homo sapiens, UniProt Q9Y5Y6).
T1 construct: made in house
T1 sequence (Q9Y5Y6 615-855 limits assumed): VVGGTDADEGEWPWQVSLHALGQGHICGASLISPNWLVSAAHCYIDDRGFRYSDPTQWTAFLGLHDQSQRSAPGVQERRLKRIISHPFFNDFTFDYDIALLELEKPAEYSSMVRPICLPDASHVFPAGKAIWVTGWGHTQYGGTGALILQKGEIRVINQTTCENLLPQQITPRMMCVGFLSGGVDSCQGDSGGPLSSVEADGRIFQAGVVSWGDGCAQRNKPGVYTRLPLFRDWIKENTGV
Briefly: Matriptase enzyme inhibition assay with chromogenic substrate Boc-QAR-pNA. Format: biochemical. The settings on record: for ΔBG(x) − ΔBG(SFTI-1[1, 14]): difference in free energy of binding/dissociation, ΔBG = −RTlnKi; for ΔBG(x) − ΔBG(SFTI-1[1, 14]) / Relative Activity: pH 7.6 (Table 1); for Relative Activity: ratio Ki of compound / Ki of SFTI-1[1,14]. As for the experimental part: Recombinant production, autocatalytic activation and purification of matriptase were conducted as previously described. Bovine trypsin was purchased from Sigma-Aldrich. Active-site titration and determination of Michaelis-Menten constants KM for the chromogenic substrate Boc-QAR-pNA was performed as reported earlier.
All experiments were performed in triplicate. […] Slopes of the initial reaction velocities (steady-state) were calculated and normalized to the data of the uninhibited enzymatic hydrolysis of Boc-QAR-pNA. The determined v/v0 values were plotted against the concentration of the inhibitor.
Errors were calculated through propagation of errors (compare Tischler et al.).[17]

The structures appear in SMILES notation.

In turn, `CC[C@H](C)[C@@H]1NC(=O)[C@H](CO)NC(=O)[C@H](CCCCN)NC(=O)[C@H]([C@@H](C)O)NC(=O)[C@@H](NC(=O)[C@H](CCCNC(=N)N)NC(=O)CN)CSSC[C@@H](C(=O)N[C@@H](Cc2ccccc2)C(=O)N2CCC[C@H]2C(=O)N[C@@H](CC(=O)O)C(=O)O)NC(=O)[C@H](CCCNC(=N)N)NC(=O)[C@@H]2CCCN2C(=O)[C@@H]2CCCN2C1=O` [Compound 18] gave a Ki of 50.6 ± 6.5 nM.

In turn, `CC[C@H](C)[C@@H]1NC(=O)[C@H](CO)NC(=O)[C@H](CCCCN)NC(=O)[C@H]([C@@H](C)O)NC(=O)[C@@H](NC(=O)[C@H](CCCNC(=N)N)NC(=O)CN)CSSC[C@@H](C(=O)N[C@@H](Cc2ccccc2)C(=O)N2CCC[C@H]2C(=O)N[C@@H](CC(=O)O)C(=O)O)NC(=O)[C@H](Cn2cc(C(=O)OC)nn2)NC(=O)[C@@H]2CCCN2C(=O)[C@@H]2CCCN2C1=O` [Compound 13] registered a Ki of 208 ± 27 nM.

`CC[C@H](C)[C@@H]1NC(=O)[C@@H]2CCCN2C(=O)[C@@H]2CCCN2C(=O)[C@H]([C@@H](C)CC)NC(=O)[C@H](CO)NC(=O)[C@H](CCCCN)NC(=O)[C@H]([C@@H](C)O)NC(=O)[C@@H](NC(=O)[C@H](CCCNC(=N)N)NC(=O)CN)CSSC[C@@H](C(=O)N[C@@H](Cc2c[nH]cn2)C(=O)N2CCC[C@H]2C(=O)N[C@@H](CC(=O)O)C(=O)O)NC1=O` [Compound 22] yielded a Ki of 206 ± 27 nM. Moreover, for the setting “matriptase”, the “ΔBG(x) − ΔBG(SFTI-1[1, 14])” value was 0.717 ± 0.12 kcal/mol and the “Relative Activity” value was determined as 0.29. The “matriptase affinity / inhibitor potency in words” value (enzyme inhibition assays, pH 7.6, comparator as worded) is reported as “beneficial effect”. For the same molecule, for the setting “matriptase, pH 7.6”, the “difference of the free energies of binding/dissociation ΔBG between compound and SFTI-1[1,14]” value is reported as “about 3 kJ/mol”.

As for `CC[C@H](C)[C@@H]1NC(=O)[C@@H]2CCCN2C(=O)[C@@H]2CCCN2C(=O)[C@H](Cn2cc(CN)nn2)NC(=O)[C@H](CO)NC(=O)[C@H](CCCCN)NC(=O)[C@H]([C@@H](C)O)NC(=O)[C@@H](NC(=O)[C@H](CCCNC(=N)N)NC(=O)CN)CSSC[C@@H](C(=O)N[C@@H](Cc2ccccc2)C(=O)N2CCC[C@H]2C(=O)N[C@@H](CC(=O)O)C(=O)O)NC1=O` [Compound 1], the Ki was 4890 ± 663 nM.

For the molecule `CC[C@H](C)[C@@H]1NC(=O)[C@@H]2CCCN2C(=O)[C@@H]2CCCN2C(=O)[C@H]([C@@H](C)CC)NC(=O)[C@H](CO)NC(=O)[C@H](CCCCN)NC(=O)[C@H]([C@@H](C)O)NC(=O)[C@@H](NC(=O)[C@H](CCCNC(=N)N)NC(=O)CN)CSSC[C@@H](C(=O)N[C@@H](C)C(=O)N2CCC[C@H]2C(=O)N[C@@H](CC(=O)O)C(=O)O)NC1=O` [Compound 19], affinity was put at a Ki of 1610 ± 206 nM. Under “matriptase”, the “ΔBG(x) − ΔBG(SFTI-1[1, 14])” value was -0.502 ± 0.096 kcal/mol and the “Relative Activity” value was 2.3.

In turn, `CC[C@H](C)[C@@H]1NC(=O)[C@H](CO)NC(=O)[C@H](CCCCN)NC(=O)[C@H]([C@@H](C)O)NC(=O)[C@@H](NC(=O)[C@H](CCCNC(=N)N)NC(=O)CN)CSSC[C@@H](C(=O)N[C@@H](Cc2ccccc2)C(=O)N2CCC[C@H]2C(=O)N[C@@H](CC(=O)O)C(=O)O)NC(=O)[C@H](Cn2cc(C(=O)O)nn2)NC(=O)[C@@H]2CCCN2C(=O)[C@@H]2CCCN2C1=O` [Compound 11] returned a Ki of 46300 ± 5730 nM.

For the molecule `CC[C@H](C)[C@@H]1NC(=O)[C@H](CO)NC(=O)[C@H](CCCCN)NC(=O)[C@H]([C@@H](C)O)NC(=O)[C@@H](NC(=O)[C@H](CCCNC(=N)N)NC(=O)CN)CSSC[C@@H](C(=O)N[C@@H](Cc2ccccc2)C(=O)N2CCC[C@H]2C(=O)N[C@@H](CC(=O)O)C(=O)O)NC(=O)[C@H](CCn2cc(C(=O)OC)nn2)NC(=O)[C@@H]2CCCN2C(=O)[C@@H]2CCCN2C1=O` [Compound 14], the Ki was found to be 2220 ± 277 nM.
